# Experimental data taken from patent publication US20110312984A1, “STAT3 INHIBITORS” (priority 2008, published 2011).
# Tested on: SUM159PT and HS578T cells
# Assay: Mammosphere formation (MSFE) assay in vitro
structure (smiles),measurement,setting,value
O=S(=O)(Nc1cc(Sc2nc[nH]n2)c(O)c2ccccc12)c1ccc(Br)cc1,decreasing MSFE compared with parent Cpd188,,1 log greater activity
same,self-renewal as measured by MSFE,initial studies,affects self-renewal
same,IC50,"read-out: Mammosphere ~IC50, μM***, compound at 1, 10 or 100 μM, incubated 3 d, spheres counted on day 3",3 µM
